What was measured:
[1] = target: T1, E25-AAA mutant, full length; experiment: semi-homogeneous ELISA (FIG. 10), streptavidin plate Pierce 15125
T1 construct: E25 with three substitutions in light chain CDR1; also called mutant E25; biotin-labeled E25-AAA Mutant

[2] = target: T1, E25-AAA mutant, full length; experiment: semi-homogeneous ELISA (FIG. 10), streptavidin plate Pierce 15500
[3] = target: T1, E25-AAA mutant, full length; experiment: semi-homogeneous ELISA (FIG. 10): positive control in human serum pool preincubated with 1 µg/mL biotin-E25-AAA, streptavidin plate (Pierce 15125), DIG-rhuFcεR1-IgG, HRP-anti-DIG

- Signal/Noise Ratio at 0.1 IU/mL [1]: 2.1 ratio
- Signal/Noise Ratio at 0.3 IU/mL [1]: 4.3 ratio
- Signal/Noise Ratio at 1 IU/mL [1]: 11.2 ratio
- Signal/Noise Ratio at 3 IU/mL [1]: 32.4 ratio
- Signal/Noise Ratio at 10 IU/mL [1]: 80.3 ratio
- Signal/Noise Ratio at 30 IU/mL [1]: 92.6 ratio
- Signal/Noise Ratio at 0.1 IU/mL [2]: 1.5 ratio
- Signal/Noise Ratio at 0.2 IU/mL [2]: 2.2 ratio
- Signal/Noise Ratio at 0.4 IU/mL [2]: 3.3 ratio
- Signal/Noise Ratio at 0.8 IU/mL [2]: 5.7 ratio
- Signal/Noise Ratio at 1.6 IU/mL [2]: 11.4 ratio
- Signal/Noise Ratio at 3.2 IU/mL [2]: 20.3 ratio
- Signal/Noise Ratio at 6.4 IU/mL [2]: 33.7 ratio
- Signal/Noise Ratio at 100 IU/mL [3]: 92.8 ratio
B1: chimeric E25-specific IgE positive control antibody (antibody)
chain 1: QVQLQQSGAELMKPGASVKISCKATGYTFSSHWIEWVKQRSGHGLEWIGEILPGSGSINYNEKFKGKATFTADTSSNTAYMQLSSLASEDSAVYYCGREGADYGYDVAMDYWGQGASVTVSSASTQSPSVFPLTRCCKNIPSNATSVTLGCLATGYFPEPVMVTWDTGSLNGTTMTLPATTLTLSGHYATISLLTVSGAWAKQMFTCRVAHTPSSTDWVDNKTFSVCSRDFTPPTVKILQSSCDGGGHFPPTIQLLCLVSGYTPGTINITWLEDGQVMDVDLSTASTTQEGELASTQSELTLSQKHWLSDRTYTCQVTYQGHTFEDSTKKCADSNPRGVSAYLSRPSPFDLFIRKSPTITCLVVDLAPSKGTVNLTWSRASGKPVNHSTRKEEKQRNGTLTVTSTLPVGTRDWIEGETYQCRVTHPHLPRALMRSTTKTSGPRAAPEVYAFATPEWPGSRDKRTLACLIQNFMPEDISVQWLHNEVQLPDARHSTTQPRKTKGSGFFVFSRLEVTRAEWEQKDEFICRAVHEAASPSQTVQRAVSVNPGK
chain 2: QIVITQSPAIMSASPGEKVTITCSATSSVNYMHWFQQKPGTSPKLWIYGTSHLASGVPARFSGSGSGTSYSLTISRMEAEDAATYYCQQRSRYPFTFGSGTKLEIKR
